pKi: −log10 of the molar value.
Assays:
[1] = molecular target: Sodium-dependent noradrenaline transporter (Homo sapiens, UniProt P23975); test: Ratio of norepinephrine uptake to norepinephrine binding
[2] = molecular target: Sodium-dependent dopamine transporter (Homo sapiens, UniProt Q01959); test: Binding affinity against cloned human dopamine transporter using 40-80 pM [125I]RTI.
Summary of the method: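 Membranes from cells expressing recombinant human transporters: DAT in C6 cells, later HEK293; SERT and NET in HEK293. Cells lysed (2 mM HEPES, 1 mM EDTA), spun at 30000g, resuspended in 0.32 M sucrose, about 15 µg protein. GF/C filtration. Duplicates; IC50 converted to Ki by Cheng-Prusoff.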

The chains behind the UniProt entries cited, without tags or fusion partners.
UniProt Q01959, whole entry: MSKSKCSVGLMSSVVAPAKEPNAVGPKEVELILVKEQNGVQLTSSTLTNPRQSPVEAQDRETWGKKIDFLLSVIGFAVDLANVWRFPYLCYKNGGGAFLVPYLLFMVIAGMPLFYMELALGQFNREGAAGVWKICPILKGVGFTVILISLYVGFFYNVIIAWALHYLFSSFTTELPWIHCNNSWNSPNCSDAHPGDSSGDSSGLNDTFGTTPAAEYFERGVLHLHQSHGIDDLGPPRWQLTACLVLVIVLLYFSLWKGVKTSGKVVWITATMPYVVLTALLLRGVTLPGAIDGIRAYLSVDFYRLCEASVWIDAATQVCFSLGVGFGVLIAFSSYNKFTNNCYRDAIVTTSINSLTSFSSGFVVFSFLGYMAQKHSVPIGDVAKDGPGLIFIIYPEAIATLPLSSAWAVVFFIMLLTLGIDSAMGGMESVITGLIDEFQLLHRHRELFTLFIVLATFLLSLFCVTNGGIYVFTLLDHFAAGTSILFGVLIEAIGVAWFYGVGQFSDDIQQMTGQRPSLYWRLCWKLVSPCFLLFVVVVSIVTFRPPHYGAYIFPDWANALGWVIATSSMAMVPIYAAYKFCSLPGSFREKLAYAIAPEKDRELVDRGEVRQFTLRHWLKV
UniProt P31645, whole entry, looked up: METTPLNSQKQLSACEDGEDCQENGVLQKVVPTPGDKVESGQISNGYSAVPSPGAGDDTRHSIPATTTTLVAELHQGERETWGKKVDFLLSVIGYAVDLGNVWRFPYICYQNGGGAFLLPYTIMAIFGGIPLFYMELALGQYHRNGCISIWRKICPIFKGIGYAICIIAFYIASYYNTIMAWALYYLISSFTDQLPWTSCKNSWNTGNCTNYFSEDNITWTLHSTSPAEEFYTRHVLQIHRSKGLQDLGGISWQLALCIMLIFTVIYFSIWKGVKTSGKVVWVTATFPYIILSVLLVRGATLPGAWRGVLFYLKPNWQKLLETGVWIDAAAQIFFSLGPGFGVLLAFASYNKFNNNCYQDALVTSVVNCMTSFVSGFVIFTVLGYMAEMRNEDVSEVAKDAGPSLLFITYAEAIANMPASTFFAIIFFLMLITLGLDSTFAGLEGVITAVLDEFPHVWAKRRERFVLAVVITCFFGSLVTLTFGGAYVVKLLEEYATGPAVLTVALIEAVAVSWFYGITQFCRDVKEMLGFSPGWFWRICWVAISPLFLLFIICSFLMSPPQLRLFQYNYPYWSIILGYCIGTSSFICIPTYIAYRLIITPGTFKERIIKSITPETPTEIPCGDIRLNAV

[3] = molecular target: Sodium-dependent serotonin transporter (Homo sapiens, UniProt P31645); test: Ratio of serotonin uptake to serotonin binding

| SMILES | Ratio [1] | pKi [2] | Ratio [3] |
| --- | --- | --- | --- |
| CC(C)N(C)[C@H]1C[C@@H](c2ccc(Cl)c(Cl)c2)c2ccccc21 | 2.8 | – | – |
| CC(C)N(C)[C@@H]1C[C@@H](c2ccc(Cl)c(Cl)c2)c2ccccc21 | 1.6 | – | – |
| CCCN(C)[C@H]1C[C@@H](c2ccc(Cl)c(Cl)c2)c2ccccc21 (relative stereo) | – | 5.92 | – |
| Clc1ccc([C@@H]2C[C@@H](NCc3ccccc3)c3ccccc32)cc1Cl (relative stereo) | 5.7 | – | – |
| CN(C)[C@H]1C[C@@H](c2ccc(Cl)c(Cl)c2)c2ccccc21 (relative stereo) | 0.57 | – | – |
| CN(C)[C@@H]1C[C@@H](c2ccc(Cl)c(Cl)c2)c2ccccc21 (relative stereo) | 0.36 | – | – |
| CN(C)[C@@H]1C[C@@H](c2ccc(Cl)c(Cl)c2)c2ccccc21 (stereo in doubt; (+)) | 0.4 | – | – |
| CN(C)[C@@H]1C[C@@H](c2ccc(Cl)c(Cl)c2)c2ccccc21 (stereo in doubt; (-)) | 1 | – | 36 |
